Test [1] concerns the target Dual specificity tyrosine-phosphorylation-regulated kinase 1B (Homo sapiens) (UniProt Q9Y463). Kind of test: Binding affinity to DYRK1B (unknown origin) assessed as binding constant.
Test [2] has as its target Dual specificity protein kinase CLK1 (Homo sapiens) (UniProt P49759). Kind of test: Binding affinity to CLK1 (unknown origin) assessed as binding constant.
For test [3], the target named is Dual specificity protein kinase CLK2 (Homo sapiens) (UniProt P49760). The test can be described thus: Binding affinity to CLK2 (unknown origin) assessed as binding constant.
Test [4] concerns the target Dual specificity protein kinase CLK4 (Homo sapiens) (UniProt Q9HAZ1). The test can be described thus: Binding affinity to CLK4 (unknown origin) assessed as binding constant.

Protein sequences, listed by entry. Tags and fused reporters are not part of them. Lines headed by an entry give the natural chain unless they say otherwise; changes in a name come on top.
UniProt Q9Y463, whole entry, looked up: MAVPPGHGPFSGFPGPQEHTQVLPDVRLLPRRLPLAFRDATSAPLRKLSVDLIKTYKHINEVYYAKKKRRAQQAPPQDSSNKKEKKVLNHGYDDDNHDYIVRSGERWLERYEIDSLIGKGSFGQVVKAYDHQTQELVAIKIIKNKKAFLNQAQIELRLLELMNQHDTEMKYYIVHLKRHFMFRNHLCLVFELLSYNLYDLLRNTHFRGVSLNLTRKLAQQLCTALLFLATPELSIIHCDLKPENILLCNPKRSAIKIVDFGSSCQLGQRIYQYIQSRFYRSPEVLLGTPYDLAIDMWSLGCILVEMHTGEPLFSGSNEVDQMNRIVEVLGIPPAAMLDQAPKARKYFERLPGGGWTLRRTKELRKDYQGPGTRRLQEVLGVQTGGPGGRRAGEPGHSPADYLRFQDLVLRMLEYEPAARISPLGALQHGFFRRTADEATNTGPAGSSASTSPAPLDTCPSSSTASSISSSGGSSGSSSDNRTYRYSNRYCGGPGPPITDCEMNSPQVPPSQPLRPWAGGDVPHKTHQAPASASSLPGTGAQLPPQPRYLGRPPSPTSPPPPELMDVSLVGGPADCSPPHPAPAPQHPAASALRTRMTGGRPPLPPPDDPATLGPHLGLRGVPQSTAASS
UniProt P49759: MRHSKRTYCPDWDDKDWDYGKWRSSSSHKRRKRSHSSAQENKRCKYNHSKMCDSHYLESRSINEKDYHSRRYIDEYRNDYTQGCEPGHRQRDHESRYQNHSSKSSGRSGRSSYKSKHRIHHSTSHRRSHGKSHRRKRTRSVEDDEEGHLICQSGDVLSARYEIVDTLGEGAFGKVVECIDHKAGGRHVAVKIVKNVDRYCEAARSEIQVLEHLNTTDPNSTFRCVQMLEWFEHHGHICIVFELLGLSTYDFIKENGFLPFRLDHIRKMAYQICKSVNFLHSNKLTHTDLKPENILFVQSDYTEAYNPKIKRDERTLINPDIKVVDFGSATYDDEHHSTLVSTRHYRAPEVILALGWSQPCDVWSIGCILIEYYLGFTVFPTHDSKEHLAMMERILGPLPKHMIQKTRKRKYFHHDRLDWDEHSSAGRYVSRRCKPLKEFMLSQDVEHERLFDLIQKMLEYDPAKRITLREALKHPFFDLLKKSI
UniProt P49760, whole entry, looked up: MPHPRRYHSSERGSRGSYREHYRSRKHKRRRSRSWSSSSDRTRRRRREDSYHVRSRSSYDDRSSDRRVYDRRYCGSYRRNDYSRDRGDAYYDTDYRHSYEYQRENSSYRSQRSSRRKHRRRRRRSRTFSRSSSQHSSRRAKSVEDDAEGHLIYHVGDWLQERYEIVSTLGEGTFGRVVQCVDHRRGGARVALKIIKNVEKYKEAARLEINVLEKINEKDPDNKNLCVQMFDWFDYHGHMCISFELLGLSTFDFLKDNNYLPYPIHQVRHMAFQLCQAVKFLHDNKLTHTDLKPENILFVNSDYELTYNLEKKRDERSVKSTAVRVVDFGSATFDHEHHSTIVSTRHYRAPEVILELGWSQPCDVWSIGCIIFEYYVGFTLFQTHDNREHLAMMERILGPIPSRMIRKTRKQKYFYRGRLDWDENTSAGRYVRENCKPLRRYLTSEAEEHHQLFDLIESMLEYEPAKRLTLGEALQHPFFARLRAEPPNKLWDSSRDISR
UniProt Q9HAZ1: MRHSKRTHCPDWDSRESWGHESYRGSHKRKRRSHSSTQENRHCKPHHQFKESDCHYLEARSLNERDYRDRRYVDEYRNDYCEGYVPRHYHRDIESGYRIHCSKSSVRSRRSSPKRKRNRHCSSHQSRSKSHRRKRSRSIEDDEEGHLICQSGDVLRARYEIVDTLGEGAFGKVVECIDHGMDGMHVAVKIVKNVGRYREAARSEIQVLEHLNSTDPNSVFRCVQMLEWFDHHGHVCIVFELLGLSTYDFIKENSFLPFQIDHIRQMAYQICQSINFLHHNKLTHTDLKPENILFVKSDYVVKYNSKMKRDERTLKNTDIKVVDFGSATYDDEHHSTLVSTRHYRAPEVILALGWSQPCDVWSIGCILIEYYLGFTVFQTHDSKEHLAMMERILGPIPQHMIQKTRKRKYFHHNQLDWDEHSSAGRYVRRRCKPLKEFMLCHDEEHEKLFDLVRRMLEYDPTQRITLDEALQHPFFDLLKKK

In the case of `Cc1nc2ccc(-c3cc(N)nc(N)c3)nc2n1C1CC1`, the K in test [1] turned out to be 0.76 nM; in test [2], 4.7 nM; in test [3] it was 5.7 nM; in test [4] it was 3.2 nM.
